{"sequences": {"note": "Protein sequences, listed by entry. Tags and fused reporters are not part of them.", "UniProt Q80SS6, whole entry": "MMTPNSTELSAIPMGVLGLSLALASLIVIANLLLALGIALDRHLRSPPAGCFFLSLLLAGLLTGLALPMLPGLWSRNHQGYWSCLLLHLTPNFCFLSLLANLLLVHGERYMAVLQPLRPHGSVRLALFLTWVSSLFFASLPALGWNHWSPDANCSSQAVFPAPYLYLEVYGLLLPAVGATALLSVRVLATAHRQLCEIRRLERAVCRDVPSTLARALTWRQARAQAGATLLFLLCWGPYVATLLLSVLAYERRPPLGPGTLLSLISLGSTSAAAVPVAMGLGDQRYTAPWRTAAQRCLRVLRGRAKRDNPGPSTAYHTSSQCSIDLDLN", "UniProt Q8TDU6, whole entry": "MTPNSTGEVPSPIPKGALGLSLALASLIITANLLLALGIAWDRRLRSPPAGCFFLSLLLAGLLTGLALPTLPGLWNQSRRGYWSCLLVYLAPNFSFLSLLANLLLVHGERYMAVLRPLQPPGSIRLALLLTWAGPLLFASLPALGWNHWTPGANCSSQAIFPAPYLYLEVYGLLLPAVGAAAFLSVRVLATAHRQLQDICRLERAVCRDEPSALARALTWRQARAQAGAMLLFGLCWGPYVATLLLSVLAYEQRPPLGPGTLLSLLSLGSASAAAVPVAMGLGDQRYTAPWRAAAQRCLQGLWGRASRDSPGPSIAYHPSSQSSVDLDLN"}, "source": "paper PMC4919643", "about": "“Intestinally-targeted TGR5 agonists equipped with quaternary ammonium have an improved hypoglycemic effect and reduced gallbladder filling effect” (Scientific Reports, 2016)", "key": {"[1]": {"biological_target": "mouse TGR5 (Mus musculus, UniProt Q80SS6)", "test": "In vitro TGR5 reporter gene assay (mTGR5/CRE/HEK293)", "settings": "read-out: mTGR5 EC50, CRE-luciferase reporter in HEK293, mean ± SD of three independent experiments"}, "[2]": {"biological_target": "human TGR5 (Homo sapiens, UniProt Q8TDU6)", "test": "In vitro TGR5 reporter gene assay (hTGR5/CRE/HEK293)", "settings": "read-out: hTGR5 EC50, CRE-luciferase reporter in HEK293, mean ± SD of three independent experiments"}, "[3]": {"test": "Solubility as noted in the SAR discussion", "format": "physicochemical", "settings": "compounds containing Br"}, "[4]": {"tested_on": "Caco-2 cells", "test": "Caco-2 permeability determination", "format": "in vitro ADME", "settings": "tested form: TFA"}}, "note": "Where two headings read alike, the source gives them in different places."}
{"compound": "CN(CC[N+](C)(C)C)C(=O)C/C=C/c1cc(Cl)c(Oc2ccsc2C(=O)N2CCN(C3CC3)c3ccccc32)cc1Cl", "values": [{"measurement": "EC50", "setting": "[1]; tested form: TFA", "result": 13, "unit": "nM"}, {"measurement": "EC50", "setting": "[2]; tested form: TFA", "result": 24, "unit": "nM"}]}
{"compound": "CN(CC[N+](C)(C)C)C(=O)c1cc(Cl)c(Oc2ccsc2C(=O)N2CCN(C3CC3)c3ccccc32)cc1Cl", "values": [{"measurement": "EC50", "setting": "[1]; tested form: TFA", "result": 215, "unit": "nM"}, {"measurement": "EC50", "setting": "[2]; tested form: TFA", "result": 805, "unit": "nM"}]}
{"compound": "C[N+](C)(C)CCN(CCC(=O)[O-])C(=O)CCc1cc(Cl)c(Oc2ccsc2C(=O)N2CCN(C3CC3)c3ccccc32)cc1Cl", "values": [{"measurement": "EC50", "setting": "[1]", "result": 16, "unit": "nM"}, {"measurement": "EC50", "setting": "[2]", "result": 66, "unit": "nM"}]}
{"compound": "CN1CCN(C(=O)c2sccc2Oc2ccc(C(F)(F)F)cc2Br)c2ccccc21", "values": [{"measurement": "solubility (in words)", "setting": "[3]", "result": "poor solubility"}, {"measurement": "EC50", "setting": "[1]", "result": 5.6, "unit": "nM"}, {"measurement": "EC50", "setting": "[2]", "result": 1.7, "unit": "nM"}]}
{"compound": "C[N+](C)(C)C1CCN(C(=O)CCc2cc(Cl)c(Oc3ccsc3C(=O)N3CCN(C4CC4)c4ccccc43)cc2Cl)CC1", "values": [{"measurement": "EC50", "setting": "[1]; tested form: TFA", "result": 2.8, "unit": "nM"}, {"measurement": "EC50", "setting": "[2]; tested form: TFA", "result": 4.5, "unit": "nM"}, {"measurement": "Papp A to B", "setting": "[4]; Caco-2, apical to basolateral side", "result": "0.2 10^−6 cm/s"}, {"measurement": "Papp B to A", "setting": "[4]; Caco-2, basolateral to apical side", "result": "0.84 10^−6 cm/s"}, {"measurement": "Efflux ratio", "setting": "[4]; Caco-2", "result": 4.1}]}
{"compound": "CN1CCN(C(=O)c2sccc2Oc2cc(Cl)ccc2Cl)c2ccccc21", "values": [{"measurement": "EC50", "setting": "[1]", "result": 15, "unit": "nM"}, {"measurement": "EC50", "setting": "[2]", "result": 2, "unit": "nM"}]}
{"compound": "CN1CCN(C(=O)c2sccc2Oc2cccc(Cl)c2)c2ccccc21", "values": [{"measurement": "EC50", "setting": "[2]", "result": 54, "unit": "nM"}]}
{"compound": "CN(CCC[N+](C)(C)C)C(=O)CCc1cc(Cl)c(Oc2ccsc2C(=O)N2CCN(C3CC3)c3ccccc32)cc1Cl", "values": [{"measurement": "EC50", "setting": "[1]; tested form: TFA", "result": 4.9, "unit": "nM"}, {"measurement": "EC50", "setting": "[2]; tested form: TFA", "result": 6.6, "unit": "nM"}]}
{"compound": "Cc1cc(C(F)(F)F)ccc1Oc1ccsc1C(=O)N1CCN(C)c2ccccc21", "values": [{"measurement": "EC50", "setting": "[1]", "result": 12, "unit": "nM"}, {"measurement": "EC50", "setting": "[2]", "result": 6.6, "unit": "nM"}]}
{"compound": "CN1CCN(C(=O)c2sccc2Oc2ccc(C(F)(F)F)cc2Cl)c2ccccc21", "values": [{"measurement": "EC50", "setting": "[1]", "result": 6.9, "unit": "nM"}, {"measurement": "EC50", "setting": "[2]", "result": 2.7, "unit": "nM"}]}
{"compound": "CN(CC[N+](C)(C)C)C(=O)CCCc1cc(Cl)c(Oc2ccsc2C(=O)N2CCN(C3CC3)c3ccccc32)cc1Cl", "values": [{"measurement": "EC50", "setting": "[1]; tested form: TFA", "result": 8.7, "unit": "nM"}]}
{"compound": "O=C(c1sccc1Oc1ccc(C(F)(F)F)cc1Br)N1CCN(C2CC2)c2ccccc21", "values": [{"measurement": "solubility (in words)", "setting": "[3]", "result": "poor solubility"}, {"measurement": "EC50", "setting": "[1]", "result": 1.3, "unit": "nM"}, {"measurement": "EC50", "setting": "[2]", "result": 0.68, "unit": "nM"}]}
{"compound": "CCN(CC[N+](C)(C)C)C(=O)CCc1cc(Cl)c(Oc2ccsc2C(=O)N2CCN(C3CC3)c3ccccc32)cc1Cl", "values": [{"measurement": "EC50", "setting": "[1]; tested form: TFA", "result": 3.1, "unit": "nM"}, {"measurement": "EC50", "setting": "[2]; tested form: TFA", "result": 4.7, "unit": "nM"}]}
{"compound": "CN(CC[N+](C)(C)C)C(=O)/C=C/c1cc(Cl)c(Oc2ccsc2C(=O)N2CCN(C3CC3)c3ccccc32)cc1Cl", "values": [{"measurement": "EC50", "setting": "[1]; tested form: TFA", "result": 16, "unit": "nM"}, {"measurement": "EC50", "setting": "[2]; tested form: TFA", "result": 12, "unit": "nM"}]}
{"compound": "C[N+]1(C)CCN(C(=O)CCc2cc(Cl)c(Oc3ccsc3C(=O)N3CCN(C4CC4)c4ccccc43)cc2Cl)CC1", "values": [{"measurement": "EC50", "setting": "[1]; tested form: TFA", "result": 1.2, "unit": "nM"}, {"measurement": "EC50", "setting": "[2]; tested form: TFA", "result": 8.7, "unit": "nM"}]}
{"compound": "O=C(c1sccc1Oc1cccc(Cl)c1)N1CCN(C2CC2)c2ccccc21", "values": [{"measurement": "EC50", "setting": "[2]", "result": 26, "unit": "nM"}]}
{"compound": "C[N+](C)(CCCN(CCC[N+](C)(C)CC(=O)[O-])C(=O)CCc1cc(Cl)c(Oc2ccsc2C(=O)N2CCN(C3CC3)c3ccccc32)cc1Cl)CC(=O)[O-]", "values": [{"measurement": "EC50", "setting": "[1]", "result": 290, "unit": "nM"}, {"measurement": "EC50", "setting": "[2]", "result": 242, "unit": "nM"}]}
{"compound": "O=C(c1sccc1Oc1cc(Cl)c(Br)cc1Cl)N1CCN(C2CC2)c2ccccc21", "values": [{"measurement": "solubility (in words)", "setting": "[3]", "result": "poor solubility"}, {"measurement": "EC50", "setting": "[1]", "result": 1.7, "unit": "nM"}, {"measurement": "EC50", "setting": "[2]", "result": 0.49, "unit": "nM"}]}
{"compound": "O=C(c1sccc1Oc1ccc(C(F)(F)F)cc1)N1CCN(C2CC2)c2ccccc21", "values": [{"measurement": "EC50", "setting": "[2]", "result": 40, "unit": "nM"}]}
